Results reported in PubChem BioAssay AID1259310 (The Scripps Research Institute Molecular Screening Center, 2017).
This is a selection; strong and weak results do not stand in their true shares. Some results for these compounds are left out of this collection, so the calls shown say nothing about other tests. Active and inactive are the calls of the source. Rule as the data show it: active = normalized activity above about 1.9%; inactive = the rest.

By UniProt entry, the sequences of proteins in these tests, tags left out. Where a name states a change or a piece, a line headed by the entry shows the natural chain unless it says otherwise.
UniProt Q969H0, whole entry, stated change not applied: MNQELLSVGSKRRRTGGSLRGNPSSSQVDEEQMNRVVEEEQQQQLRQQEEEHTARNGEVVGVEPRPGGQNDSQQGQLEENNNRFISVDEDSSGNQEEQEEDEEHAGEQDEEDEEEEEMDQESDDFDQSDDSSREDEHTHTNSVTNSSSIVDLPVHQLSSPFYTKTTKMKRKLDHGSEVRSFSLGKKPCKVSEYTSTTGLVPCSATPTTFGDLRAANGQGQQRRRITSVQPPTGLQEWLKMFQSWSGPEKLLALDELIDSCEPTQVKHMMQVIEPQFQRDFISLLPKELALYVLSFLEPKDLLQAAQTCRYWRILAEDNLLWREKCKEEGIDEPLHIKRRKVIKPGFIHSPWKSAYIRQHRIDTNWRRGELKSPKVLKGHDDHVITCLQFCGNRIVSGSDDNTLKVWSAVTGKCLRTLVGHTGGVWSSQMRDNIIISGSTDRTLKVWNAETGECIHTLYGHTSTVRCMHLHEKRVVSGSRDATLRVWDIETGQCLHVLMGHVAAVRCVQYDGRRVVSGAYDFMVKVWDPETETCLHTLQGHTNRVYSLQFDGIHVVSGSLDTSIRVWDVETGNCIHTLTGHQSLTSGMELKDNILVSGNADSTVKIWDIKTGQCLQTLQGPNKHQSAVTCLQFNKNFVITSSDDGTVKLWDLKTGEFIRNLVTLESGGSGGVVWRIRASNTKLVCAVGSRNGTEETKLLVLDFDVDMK

Biological target: F-box/WD repeat-containing protein 7 (Homo sapiens) (UniProt Q969H0)
Assay: FBW7 E3 ligase activators, primary screen, biochemical, AlphaScreen, human (AID 1259310);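 also: purified mutant Fbw7 with reduced substrate affinity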
Settings: AlphaScreen FBW7–phospho-cyclin E peptide binding, activator screen; at 26.1 µM; hits give high values

SMILES	normalized activity (activation)
CN(C)C1(CNC(=O)c2c(F)cccc2F)CCCCC1	inactive: -0.12%
CN(C)c1cccc(C(=O)NCC2(N(C)C)CCCCC2)c1	inactive: -0.07%
CC(C)Oc1ccc(C(=O)NCC2(N(C)C)CCCCC2)cc1	inactive: -0.09%
CN1C2CCC1CC(OC(=O)C(O)(c1ccccc1)c1ccccc1)C2 (stereo not given)	inactive: -0.33%
COc1cccc(C(=O)NCC2(N3CCCCC3)CCCCC2)c1	inactive: -0.05%
COc1ccc(Cl)cc1C(=O)NCC1(N(C)C)CCCCC1	inactive: 0.14%
CC(CCN(C)C)OC(=O)C(O)(c1ccccc1)c1ccccc1 (stereo not given)	inactive: -0.27%
CN(C)C1(CNC(=O)c2n[nH]c3ccccc23)CCCCC1	inactive: 0.03%
CN(C)c1ccc(C(=O)NCC2(N(C)C)CCCCC2)cc1	inactive: 0.49%
CN(C)C1CCCC1OC(=O)C(O)(c1ccccc1)c1ccccc1 (stereo not given)	inactive: 0.59%
COc1ccc(C(=O)NCC2(N(C)C)CCCCC2)cc1	inactive: 0.62%
CC(C)N(CCOC(=O)C(O)(c1ccccc1)c1ccccc1)C(C)C	inactive: 1.19%
O=C(NCC1(N2CCOCC2)CCCCC1)c1cnc(Cl)c(Cl)c1	inactive: 0.04%
CN1CCCC(COC(=O)C(O)(c2ccccc2)c2ccccc2)C1 (stereo not given)	inactive: -0.02%
COc1cc(SC)ccc1C(=O)NCC1(N(C)C)CCCCC1	inactive: 0%
